# Reference: US6974816B2, “Combination for the treatment of endothelial damage” (Licentia Ltd., priority 2001, dated 2005)
# Settings: rabbit, in vivo
smiles,measurement,value
"Cc1ccc(NC(=O)c2ccc(CN3CCN(C)CC3)cc2)cc1Nc1nccc(-c2cccnc2)n1 [STI571, N-{5-[4-(4-methyl-piperazino-methyl)-benzoylamido]-2-methylphenyl}-4-(3-pyridyl)-2-pyrimidine-amine]",weight,2618 ± 124 g
